# Measurements taken from patent US7732611B2, “Amine salt of carbostyril derivative” (Otsuka Pharmaceutical Co., Ltd., priority 2004, dated 2010).
# Experiment: Water-solubility test at 25° C. of the isolated salts (HPLC)
# Format: physicochemical
# Settings: shaken 3 hours (5 days for meglumine salt), filtered, concentration of Compound A by HPLC
# Method: Preparation of the Test Solution
# After shaking, the mixture was filtered through a 0.45 μm membrane filter (0.2 μm for meglumine salt). 1 mL of the filtrate was precisely pipetted and thereto was added 50% DMF so as to be totally 50 mL in precise. 2 mL of this solution was precisely pipetted and thereto was added 50% DMF so as to be totally 20 mL in precise to give a sample solution.
# Preparation of the Standard Solution
# Using each 10 μL of the sample solutions and the standard solutions, the liquid chromatographic analyses were carried out in the following conditions.
substance,measurement,value
2-(4-chlorobenzoylamino)-3-(2-quinolon-4-yl)propionic acid-.1/2 ethylenediamine salt [Compound A·1/2 ethylenediamine salt],Solubility (%),0.05%
